The results in this text go back to patent US11766447B2, “3′3′-cyclic dinucleotide analogue comprising a cyclopentanyl modified nucleotide as sting modulator” (INSTITUTE OF ORGANIC CHEMISTRY AND BIOCHEMISTRY ASCR, V.V.I., priority 2019, dated 2023).

Protein sequences, listed by entry. Tags and fused reporters are not part of them.
UniProt Q86WV6, whole entry H232R: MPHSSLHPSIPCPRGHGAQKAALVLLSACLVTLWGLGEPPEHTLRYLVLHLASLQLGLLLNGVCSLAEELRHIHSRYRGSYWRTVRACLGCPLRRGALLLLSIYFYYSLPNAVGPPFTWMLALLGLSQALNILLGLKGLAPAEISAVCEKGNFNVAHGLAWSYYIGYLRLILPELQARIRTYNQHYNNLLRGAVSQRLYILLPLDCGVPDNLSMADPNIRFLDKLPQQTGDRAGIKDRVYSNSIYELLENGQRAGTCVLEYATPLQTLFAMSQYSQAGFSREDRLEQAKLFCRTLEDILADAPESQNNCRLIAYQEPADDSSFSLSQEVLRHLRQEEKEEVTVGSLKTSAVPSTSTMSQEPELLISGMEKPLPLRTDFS

The test addresses WT STING (Homo sapiens, UniProt Q86WV6, H232R). Briefly: 293T WT STING standard reporter assay. It counts as cell-based. Further details: host or cells: 293T (ATCC CRL-3216), stably transfected, with 4xISRE firefly luciferase reporter. Conditions: 293T WT STING EC50 (μM), 293T wtSTING-FL cells, ISRE firefly luciferase; no digitonin; 7 hours with compounds; 8-point curve. From the text: Two complementary oligonucleotides of the sequence […] […] […] […] […] The oligonucleotides were mixed in equal molar amounts, hybridized, and cleaved by restriction endonucleases HindIII (cat. #. R0104S, NEB, Ipswich, USA) and BglII (cat. #R0144S, NEB, Ipswich, USA). Ultimately, they were ligated into plasmid pGL4.27 (cat. #E6651, Promega, Madison, USA) linearized with the same enzymes. As result the sequence with four ISRE sites was placed upstream of the minimum promoter of firefly luciferase reporter gene.
After 5 minutes incubation at room temperature (RT), 250 μL of the mixture was added dropwise to the cells in one well. Cells were incubated 36 hours at 37° C. with 5% CO2, and then detached with 0.05% Trypsin and 0.22 g/L EDTA (both cat. #L0941, Biowest, Riverside, USA).
Transfected cells were seeded onto poly-D-lysine coated six well plates at density 50,000 cells per 1 cm^2 in DMEM medium with high glucose containing 10% heat inactivated FBS, 30 μg/mL blasticidin (cat. #ant-b1-05, InvivoGen, San Diego, USA), 0.06 mg/ml Penicillin G and 0.1 mg/ml Streptomycin Sulfate (both cat. #. L0018, Biowest, Riverside, USA). The medium was replenished every 3-4 days until visible colonies of cells resistant to blasticidin were formed.
Blasticidin resistant cells stably expressing WT STING were further transfected with […] plasmid following the same procedure as described above. […] Homogeneous culture of stably double transfected cells was prepared by limiting dilution of cells in 96 well plates and wells with cells were selected that originated from a single cell.
The medium was removed next day and three-fold serial dilutions of compounds in 100 μl medium were added to the cells. The plates with cells were incubated for 7 hours at 37° C. with 5% CO2. After 50 μl of the medium was removed, 30 μl of ONE-Glo™ Luciferase Assay System reagent (cat. #E6120, Promega, Madison, USA) was added to each well and luminescence was read on Synergy H1 (Biotek, Winooski, USA).

For the molecule `CC(C)(C)C(=O)OCSP1(=O)OC[C@H]2O[C@@H](n3cnc4c(N)ncnc43)[C@H](F)[C@@H]2OP(=O)(O)OC[C@H]2C[C@@H](n3cnc4c(N)ncnc43)[C@H](F)[C@@H]2O1` (single isomer, unassigned) [Compound 149a], the EC50 worked out at 0.2 µM. `CC(C)(C)C(=O)OCSP1(=O)OC[C@H]2O[C@@H](n3cnc4c(=O)[nH]c(N)nc43)[C@H](F)[C@@H]2OP(=O)(SCOC(=O)C(C)(C)C)OC[C@H]2C[C@@H](n3cnc4c(N)ncnc43)[C@H](F)[C@@H]2O1` (single isomer, unassigned) [Compound 150a]: the EC50 came to 0.04 µM.

Turning to `CC(C)(C)C(=O)OCSP1(=O)OC[C@H]2C[C@@H](n3cnc4c(N)ncnc43)C(F)[C@H]2OP(=O)(SCOC(=O)C(C)(C)C)OC[C@H]2O[C@@H](n3cnc4c(=O)[nH]c(N)nc43)[C@@H](F)C2O1` (stereo partly drawn) [Compound 150b, {[(1R,6R,8R,9R,10R,15R,17R,18S)-8-(2-amino-6-oxo-6,9-dihydro-1H-purin-9-yl)-17-(6-amino-9H-purin-9-yl)-3-({[(2,2-dimethylpropanoyl)oxy]methyl}sulfanyl)-9,18-difluoro-3,12-dioxo-2,4,7,11,13-pentaoxa-3λ^5,12λ^5-diphosphatricyclo[13.3.0.0^6,10]octadecan-12-yl]sylfanyl}methyl 2,2-dimethylpropanoate], the EC50 worked out at 0.2 µM.

With `CC(C)(C)C(=O)OCSP1(=O)OC[C@H]2O[C@@H](n3cnc4c(N)ncnc43)C(F)C2OP(=O)(SCOC(=O)C(C)(C)C)OC[C@H]2C[C@@H](n3cnc4c(N)ncnc43)C(F)C2O1` (stereo partly drawn) [Compound 140, (((2R,3R,3aR,7aR,9R,10S,10aR,14aR)-2,9-bis(6-amino-9H-purin-9-yl)-3,10-difluoro-5,12-dioxidodecahydro-2H-cyclopenta[d]furo[3,2-j][1,3,7,9]tetraoxa[2,8]di-phosphacyclododecine-5,12-diyl)bis(sulfanediyl))bis(methylene) bis(2,2-dimethylpropanoate)], the EC50 was 0.001 µM. Turning to `CC(C)(C)C(=O)OCSP1(=O)OC[C@H]2O[C@@H](n3cnc4c(N)ncnc43)C[C@@H]2OP(=O)(SCOC(=O)C(C)(C)C)OC[C@H]2C[C@@H](n3cnc4c(N)ncnc43)[C@H](F)[C@@H]2O1` (stereo partly drawn) [Compound 151, {[(1R,6R,8R,10S,15R,17R,18S)-8,17-bis(6-amino-9H-purin-9-yl)-3-({[(2,2-dimethylpropanoyl)oxy]methyl}sulfanyl)-18-fluoro-3,12-dioxo-2,4,7,11,13-pentaoxa-3λ^5,12λ^5-diphosphatricyclo[13.3.0.0^6,10]octadecan-12-yl]sulfanyl}methyl 2,2-dimethylpropanoate], the concentration giving a half-maximal response (EC50) stood at 0.008 µM. In the case of `CC(C)(C)C(=O)OCSP1(=O)OC[C@H]2C[C@@H](n3cnc4c(=O)[nH]c(N)nc43)C[C@@H]2OP(=O)(SCOC(=O)C(C)(C)C)OC[C@H]2O[C@@H](n3cnc4c(N)ncnc43)[C@H](F)[C@@H]2O1` (stereo partly drawn) [Compound 148, {[(1S,6R,8R,9R,10R,15R,17R)-17-(2-amino-6-oxo-6,9-dihydro-1H-purin-9-yl)-8-(6-amino-9H-purin-9-yl)-3-({[(2,2-dimethylpropanoyl)oxy]methyl}sulfanyl)-9-fluoro-3,12-dioxo-2,4,7,11,13-pentaoxa-3λ^5,12λ^5-diphosphatricyclo[13.3.0.0^6,10]octadecan-12-yl]sulfanyl}methyl 2,2-dimethylpropanoate], the EC50 amounted to 0.02 µM.
